# Assay outcomes: PubChem BioAssay, Broad Institute
# Cneo AK release: causes C. neoformans cell lysis. AID 651654. actives 0.2% (n = 360,000). lysis activity, % at 15 µM. adenylate kinase release luminescence, 4 h; normalised: neutral wells 0, clomiphene wells 100;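 active means mean lysis activity across replicates of at least 80%, whatever share of replicates individually reach that level; inactive means mean lysis activity below 80%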
#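 Material – log-phase Cryptococcus neoformans yeast cells · Input – 5 × 10^6 yeast cells/mL · Medium – fresh YPD growth medium · Doses – single compound concentration per well · Timing – static 4 h at 37 °C with compound, 1 h detection · Detection – adenylate kinase release luminescence · Read-out – signal increase indicating cell lysis · Control set – Clomiphene as positive lysis control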
# Yeast UUG start: alters start codon recognition fidelity in yeast; S. cerevisiae UUG-firefly luciferase reporter, luminescence/redox ratio; activity score, % at 18.7 µM; actives 0.13% (n = 350,000); AID 602363;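 active = replicate mean at a twofold rise or more, about +100% in these data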;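 also: firefly luciferase made from a UUG start codon reports start codon fidelity; reporter light over untreated wells divided by growth signal over untreated wells; some hits fall short of that in this replicate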
# E-sel inducer: induces E-selectin expression in human endothelial cells; activation, % at 7.58 µM; HUVEC E-selectin immunofluorescence imaging; normalized: neutral wells 0, TNF-alpha wells 100; actives 0.37% (n = 260,000); AID 686992;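 active means mean E-selectin-positive cell signal at least 10% of the positive control, reached in at least 60% of replicates, without over 20% cell loss; inconclusive means no rule given, readout overlaps actives, possibly toxicity-flagged; inactive means the rest, including those meeting only one limit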
#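 Assay system: HUVEC primary endothelial cells. Input: 3,000 HUVEC seeded per well. Doses: one compound dose added by pin transfer. Read-out basis: % PE-positive cells. Benchmarks: TNF-alpha high, DMSO low. Detection: immunofluorescence imaging. Buffer or medium: EGM-2, gelatin.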
# DENV2 CPE: inhibitors of DENV2 cytopathic effect; DENV2-infected cells, cytopathic effect rescue, plate reader; CPE inhibition, % at 9.99 µM; actives 1.7% (n = 350,000); in the data active means CPE inhibition above about 20%, passing the limit was not always enough; inconclusive means no clear call, values can overlap the other calls; tested in BHK-21 cells;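 further: 0% = median of neutral control wells and 100% = median of positive control wells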
# An asterisk follows results filed as active; ? = inconclusive; / = not tested or not shown. Compounds with a hit are over-represented: about 1.8% of the library has one in this group of screens.
# Results follow in this order: Cneo AK release, Yeast UUG start, E-sel inducer, DENV2 CPE
1	COc1ccc(O)c(/C=N/NC(=O)CN2CCS(=O)(=O)CC2)c1
 : -4, -19, 0, 54*
2	CSc1ccccc1NC(=O)c1cc2c(=O)n3ccccc3nc2s1
 : -2, 16, 0, 22*
3	C/C=C/c1ccc([C@H]2[C@H](CO)N(C(=O)c3cnccn3)C23CN(C(=O)C2CC2)C3)cc1
 : /, /, 0, 33*
4	C/C=C/c1ccc([C@@H]2[C@@H](CO)N(C(C)=O)C23CN(C(=O)c2ccncc2)C3)cc1
 : /, /, 1, 25*
5	C/C=C/c1ccc([C@@H]2[C@@H](CO)N(C(C)=O)C23CN(C(=O)c2ccccc2)C3)cc1
 : /, /, 0, 0
6	Cc1noc(C)c1S(=O)(=O)N(C)C[C@H]1OCCCC[C@H](C)Oc2ccc(NC(=O)NC3CCCCC3)cc2C(=O)N([C@H](C)CO)C[C@H]1C
 : /, /, 0, /
7	CCOC(=O)c1cn(CC)c2cc3c(cc2c1=O)OCO3
 : 0, 1, 0, 25*
8	COc1cc(NC(=S)N2CCOCC2)c(OC)cc1Cl
 : 0, -13, 26*, -1
9	COc1cc(NC(=S)N2CCN(C)CC2)c(OC)cc1Cl
 : /, /, /, 1
10	CCOC(=O)C1(Cc2cccc(OC)c2)CCN(Cc2cccnc2)CC1
 : /, /, 6, 6
11	CCOC(=O)C1(Cc2cccc(OC)c2)CCCN(Cc2cc(C(C)C)n[nH]2)C1 (stereo not given)
 : 1, -7, 28*, 15
12	CCOC(=O)C1(C)CCN1C(=O)c1cccc(OC)c1 (stereo not given)
 : -2, -21, 0, 42*
13	CCOC(=O)C1(Cc2cccc(OC)c2)CCN(Cc2ccccc2)CC1
 : 2, -7, 33*, 11
14	CCOC(=O)C1(C)CCCN1C(=O)c1cccc(OC)c1 (stereo not given)
 : -1, -7, 0, -12
15	C[C@H]1CN([C@@H](C)CO)C(=O)c2ccccc2-c2ccccc2CO[C@H]1CN(C)S(=O)(=O)c1ccccc1F
 : -1, /, 0, 1
16	CC(C)NC(=O)N1CC(=O)N2[C@H](CO)[C@@H](c3ccc(/C=C/c4ccccc4)cc3)[C@@H]2C1
 : /, /, 1, 8
17	CC(=O)NCCC(=O)Nc1cc(S(=O)(=O)N2CCCCC2)ccc1N1CCN(C)CC1
 : 2, -15, 0, 31*
18	CCCN(CC(=O)Nc1ccccc1C)C(=O)C1CCN(S(=O)(=O)c2ccc(C)c(C)c2)CC1
 : 0, -7, 1, 27*
19	CC(=O)NCCC(=O)Nc1cc(S(=O)(=O)N2CCCCC2)ccc1N1CCCCC1
 : 1, -22, /, -1
20	Cc1ccc(S(=O)(=O)N2CCOCC2)cc1NC(=O)CN(C)CC(=O)Nc1cccc(F)c1
 : 0, 2, 0, 83*

# Sorted by formula weight (high to low): some entries from above.
# Results follow in this order: Cneo AK release, Yeast UUG start, E-sel inducer, DENV2 CPE
6	Cc1noc(C)c1S(=O)(=O)N(C)C[C@H]1OCCCC[C@H](C)Oc2ccc(NC(=O)NC3CCCCC3)cc2C(=O)N([C@H](C)CO)C[C@H]1C
 : /, /, 0, /
4	C/C=C/c1ccc([C@@H]2[C@@H](CO)N(C(C)=O)C23CN(C(=O)c2ccncc2)C3)cc1
 : /, /, 1, 25*
10	CCOC(=O)C1(Cc2cccc(OC)c2)CCN(Cc2cccnc2)CC1
 : /, /, 6, 6
2	CSc1ccccc1NC(=O)c1cc2c(=O)n3ccccc3nc2s1
 : -2, 16, 0, 22*
14	CCOC(=O)C1(C)CCCN1C(=O)c1cccc(OC)c1 (stereo not given)
 : -1, -7, 0, -12

# (listing goes on)
# Results follow in this order: Cneo AK release, Yeast UUG start, E-sel inducer, DENV2 CPE
21	Cc1ccc(S(=O)(=O)N2CCCCC2)cc1NC(=O)CCOc1ccccc1
 : /, /, /, 72*
22	Cc1ccc(S(=O)(=O)N2CCCCC2)cc1NC(=O)CCCOc1ccccc1
 : 1, -14, 0, -8
23	C[C@H](CO)N1C[C@H](C)[C@H](CN(C)S(C)(=O)=O)Oc2ccc(NC(=O)Cc3cn(C)c4ccccc34)cc2CC1=O
 : 0, 18, /, -9
24	COCC(=O)Nc1ccc2c(c1)C(=O)N(C)[C@@H]1CC[C@H](CC(=O)NCc3ccccc3Cl)O[C@@H]1CO2
 : 1, 17, 0, -6
25	Cc1ccc(S(=O)(=O)N2CCCCC2)cc1NC(=O)c1cc(=O)[nH]c2ccccc12
 : 2, -9, /, 77*
26	Cn1c(=O)oc2cc(S(=O)(=O)N3CCCC(C(=O)NCCN4CCOCC4)C3)ccc21 (stereo not given)
 : 0, -17, 0, 83*
27	COc1ccccc1-c1nnc(NC(=O)c2ccc(S(=O)(=O)N3CCCC3)cc2)o1
 : 2, 2, 0, 3
28	O=C(Nc1nnc(-c2ccco2)o1)c1ccc(S(=O)(=O)N2CCCC2)cc1
 : /, /, /, 5
29	CS(=O)(=O)c1cccc(-c2nnc(NC(=O)c3ccc(S(=O)(=O)N4CCCC4)cc3)o2)c1
 : 1, -16, 0, 61*
30	CC1CCN(S(=O)(=O)c2ccc(C(=O)Nc3nnc(-c4ccco4)o3)cc2)CC1
 : 1, -29, -1, 90*
31	O=C(O)c1ccc(O)cc1O
 : -1, 1, /, 67*
32	CC(C)NC(=O)Nc1ccc2c(c1)C(=O)N([C@@H](C)CO)C[C@@H](C)[C@H](CN(C)C(=O)Nc1ccc3c(c1)OCO3)O2
 : 1, -5, 0, 28*
33	CC(C)NC(=O)Nc1ccc2c(c1)C(=O)N([C@@H](C)CO)C[C@H](C)[C@@H](CN(C)C(=O)Nc1ccc3c(c1)OCO3)O2
 : 1, -11, 0, 21*
34	CN1CCN(C(=O)C[C@@H]2CC[C@H]3[C@@H](COc4ccc(NC(=O)C5CCC5)cc4C(=O)N3C)O2)CC1
 : /, /, 0, 4
35	COc1ccc(NC(=O)N(C)C[C@@H]2Oc3c(NC(=O)Nc4ccc(C(F)(F)F)cc4)cccc3C(=O)N([C@@H](C)CO)C[C@H]2C)cc1
 : /, /, -1, /
36	C#CCN1C(=O)[C@]2(OCCC=C[C@H]2C)c2ccccc21
 : /, /, 1, 77*
37	Cc1ccc(C(C)C)c(OCCNC(=O)c2ccccc2O)c1
 : 1, -14, 0, 45*
38	C[C@@H]1CN([C@H](C)CO)C(=O)c2cccc(NC(=O)Nc3ccc(F)cc3)c2O[C@H]1CN(C)Cc1ccncc1
 : 54, 8, 40*, ?
39	C[C@@H]1CN([C@H](C)CO)C(=O)c2cccc(NC(=O)Nc3ccccc3)c2O[C@H]1CN(C)Cc1ccncc1
 : -2, -20, 0, -7
40	C[C@H]1CN([C@@H](C)CO)C(=O)c2cccc(NC(=O)Nc3ccc(F)cc3)c2O[C@H]1CN(C)Cc1ccncc1
 : -1, -6, 58*, -3

# Remaining list, next part.
# Results follow in this order: Cneo AK release, Yeast UUG start, E-sel inducer, DENV2 CPE
41	CNC[C@@H]1Oc2c(NC(=O)Nc3ccc(F)cc3)cccc2C(=O)N([C@@H](C)CO)C[C@H]1C
 : -2, -5, -2, -5
42	CNC[C@@H]1Oc2c(NC(=O)Nc3ccc(F)cc3)cccc2C(=O)N([C@H](C)CO)C[C@H]1C
 : -3, -5, 131*, -3
43	C[C@@H]1CN([C@H](C)CO)C(=O)c2cccc(NC(=O)Nc3ccc(C(F)(F)F)cc3)c2O[C@H]1CN(C)Cc1ccncc1
 : 0, -5, -10, 5
44	C[C@@H]1CN([C@@H](C)CO)C(=O)c2cccc(NC(=O)Nc3ccc(F)cc3)c2O[C@@H]1CN(C)Cc1ccncc1
 : -3, -3, 65*, 9
45	Cc1cc(NC(=O)c2ccccc2F)n(C(C)(C)C)n1
 : -1, -11, 34*, -4
46	O=C(c1ccccc1)N1CC[C@@H]2[C@H](CO)Nc3ccc(-c4ccccc4F)cc3[C@@H]21
 : 13, -2, 0, 17
47	O=C(c1cnccn1)N1CC[C@@H]2[C@H](CO)Nc3ccc(-c4ccccc4F)cc3[C@@H]21
 : -5, -4, 1, ?
48	O=C(c1cnccn1)N1CC[C@@H]2[C@@H](CO)Nc3ccc(-c4ccccc4F)cc3[C@@H]21
 : -2, 1, 0, 114*
49	O=C(c1ccccc1)N1CC[C@@H]2[C@@H](CO)Nc3ccc(-c4ccccc4F)cc3[C@@H]21
 : 52, 6, 0, 33*
